In ChEMBL document CHEMBL3120163, “Octulosonic acid derivatives from Roman chamomile (Chamaemelum nobile) with activities against inflammation and metabolic disorder” (J Nat Prod, 2014) one finds fold change (FC) data, which are given here for six molecules.

Sequences of proteins named here, by UniProt entry; tags and fusion partners are left off. A change or cut given only in a name is not applied to a line headed by its entry.
UniProt Q13133, whole entry: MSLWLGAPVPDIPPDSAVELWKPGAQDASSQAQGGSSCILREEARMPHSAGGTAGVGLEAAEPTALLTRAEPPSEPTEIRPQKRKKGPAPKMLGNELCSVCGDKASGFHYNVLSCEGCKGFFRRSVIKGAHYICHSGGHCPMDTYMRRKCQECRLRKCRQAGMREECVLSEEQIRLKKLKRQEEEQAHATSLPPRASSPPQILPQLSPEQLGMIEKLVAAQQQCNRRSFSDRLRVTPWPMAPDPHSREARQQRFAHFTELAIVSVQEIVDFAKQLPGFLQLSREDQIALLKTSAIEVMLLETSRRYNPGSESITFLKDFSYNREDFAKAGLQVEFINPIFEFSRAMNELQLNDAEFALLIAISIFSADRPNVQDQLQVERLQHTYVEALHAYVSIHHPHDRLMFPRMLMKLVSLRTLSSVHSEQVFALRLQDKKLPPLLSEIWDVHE
UniProt P37231: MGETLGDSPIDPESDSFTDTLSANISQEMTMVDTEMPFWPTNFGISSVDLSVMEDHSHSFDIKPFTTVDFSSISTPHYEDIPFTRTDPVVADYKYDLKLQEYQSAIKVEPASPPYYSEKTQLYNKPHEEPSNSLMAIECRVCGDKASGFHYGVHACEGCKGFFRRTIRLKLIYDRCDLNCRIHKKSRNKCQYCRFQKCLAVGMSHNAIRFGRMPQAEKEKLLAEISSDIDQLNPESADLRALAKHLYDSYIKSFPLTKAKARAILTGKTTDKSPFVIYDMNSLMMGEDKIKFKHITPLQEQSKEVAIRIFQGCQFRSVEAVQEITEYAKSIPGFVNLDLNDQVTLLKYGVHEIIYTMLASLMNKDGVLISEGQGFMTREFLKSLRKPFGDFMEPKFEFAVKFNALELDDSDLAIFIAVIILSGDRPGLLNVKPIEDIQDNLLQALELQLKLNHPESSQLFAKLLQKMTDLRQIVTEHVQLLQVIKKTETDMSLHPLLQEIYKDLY

SMILES strings stand for the structures.

Holding throughout (format): cell-based
The target in assay [1] is Oxysterols receptor LXR-alpha (Homo sapiens) (UniProt Q13133). The experiment in a line: Activation of LXRalpha in human HepG2 cells at 30 uM after 24 hrs by luciferase reporter gene assay relative to vehicle-treated control. For orientation: A reporter such as luciferase makes a cellular process visible.
The target of assay [2] is Peroxisome proliferator-activated receptor gamma (Homo sapiens) (UniProt P37231). Briefly: Activation of PPARgamma in human HepG2 cells at 30 uM after 24 hrs by luciferase reporter gene assay relative to vehicle-treated control.
The target in assay [3] is T1, Growth/differentiation factor 15 (Homo sapiens) (UniProt Q99988).
T1 sequence (whole entry): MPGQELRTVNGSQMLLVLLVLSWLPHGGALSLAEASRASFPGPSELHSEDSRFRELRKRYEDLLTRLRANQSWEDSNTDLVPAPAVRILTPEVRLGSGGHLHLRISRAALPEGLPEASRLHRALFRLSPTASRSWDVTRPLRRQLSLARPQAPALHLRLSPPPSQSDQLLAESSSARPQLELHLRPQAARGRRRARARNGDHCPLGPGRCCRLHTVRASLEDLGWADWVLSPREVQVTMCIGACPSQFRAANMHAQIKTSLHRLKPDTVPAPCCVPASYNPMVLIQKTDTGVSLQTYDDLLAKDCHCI
The experiment in a line: Activation of NAG-1 in human SW1353 cells at 50 uM after 24 hrs by luciferase reporter gene assay relative to vehicle-treated control.

The target of assay [4] is T2, Peroxisome proliferator-activated receptor alpha (Homo sapiens) (UniProt Q07869).
T2 sequence (whole entry): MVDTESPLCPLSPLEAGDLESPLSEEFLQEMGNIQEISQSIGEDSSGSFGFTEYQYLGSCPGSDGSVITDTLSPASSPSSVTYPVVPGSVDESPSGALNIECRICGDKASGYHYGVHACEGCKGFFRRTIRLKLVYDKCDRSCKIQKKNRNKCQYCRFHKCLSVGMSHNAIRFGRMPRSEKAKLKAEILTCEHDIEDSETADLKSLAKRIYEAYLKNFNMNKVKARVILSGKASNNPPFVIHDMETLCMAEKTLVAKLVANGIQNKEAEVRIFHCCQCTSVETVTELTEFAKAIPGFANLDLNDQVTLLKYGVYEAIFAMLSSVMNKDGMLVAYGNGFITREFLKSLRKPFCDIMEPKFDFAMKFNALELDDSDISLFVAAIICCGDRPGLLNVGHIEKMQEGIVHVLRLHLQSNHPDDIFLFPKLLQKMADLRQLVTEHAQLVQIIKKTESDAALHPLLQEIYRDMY
Briefly: Activation of PPARalpha in human HepG2 cells at 30 uM after 24 hrs by luciferase reporter gene assay relative to vehicle-treated control.

Turning to `COC(=O)[C@]12C[C@@H](OC(=O)/C=C/c3ccc(O)c(O)c3)[C@@H](OC(=O)/C=C/c3ccc(O)c(O)c3)[C@@H](O1)[C@@H](COC(=O)/C=C/c1ccc(O)c(O)c1)O2` (relative stereo), the fold change (FC) came out at 1.11 in assay [1], 2.09 in assay [2], 2.12 in assay [3] and 1.35 in assay [4].

On to `COC(=O)[C@]12C[C@@H](OC(=O)/C=C/c3ccc(O)c(O)c3)[C@@H](O)[C@H](O1)[C@@H](COC(=O)/C=C/c1ccc(O)c(O)c1)O2` (relative stereo), for which the fold change (FC) in assay [1] is 1.06; in assay [2], 1.59; in assay [3], 2.3; in assay [4], 1.43.

As for `COC(=O)[C@]12C[C@@H](O)[C@@H](O)[C@H](O1)[C@@H](COC(=O)/C=C/c1ccc(O)c(O)c1)O2` (relative stereo), the fold change (FC) is 1.22 in assay [1], 1.04 in assay [2], 3.1 in assay [3] and 1.09 in assay [4].

`O=C(/C=C/c1ccc(O)c(O)c1)OC[C@H]1O[C@@]2(C(=O)O)C[C@@H](OC(=O)/C=C/c3ccc(O)c(O)c3)[C@@H](OC(=O)/C=C/c3ccc(O)c(O)c3)[C@H]1O2` (relative stereo): the fold change (FC) in assay [1] worked out at 1.14; in assay [2], 1.68; in assay [3], 2.63; in assay [4], 1.

As to `O=C(/C=C/c1ccc(O)c(O)c1)OC[C@H]1O[C@@]2(C(=O)O)C[C@@H](OC(=O)/C=C/c3ccc(O)c(O)c3)[C@@H](O)[C@@H]1O2` (relative stereo), the fold change (FC) amounted to 1.59 in assay [1], 1.25 in assay [2], 2.34 in assay [3] and 1.21 in assay [4].

On to `O=C(/C=C/c1ccc(O)c(O)c1)OC[C@H]1O[C@@]2(C(=O)O)C[C@@H](O)[C@@H](O)[C@@H]1O2` (relative stereo), for which the fold change (FC) in assay [1] stood at 1.12; in assay [2], 1.18; in assay [3], 3.2; in assay [4] it was 1.2.
